The assay concerns the target T1, URAT1 (SLC22A12) (Homo sapiens, UniProt Q96S37).
T1 sequence (Q96S37 1-553): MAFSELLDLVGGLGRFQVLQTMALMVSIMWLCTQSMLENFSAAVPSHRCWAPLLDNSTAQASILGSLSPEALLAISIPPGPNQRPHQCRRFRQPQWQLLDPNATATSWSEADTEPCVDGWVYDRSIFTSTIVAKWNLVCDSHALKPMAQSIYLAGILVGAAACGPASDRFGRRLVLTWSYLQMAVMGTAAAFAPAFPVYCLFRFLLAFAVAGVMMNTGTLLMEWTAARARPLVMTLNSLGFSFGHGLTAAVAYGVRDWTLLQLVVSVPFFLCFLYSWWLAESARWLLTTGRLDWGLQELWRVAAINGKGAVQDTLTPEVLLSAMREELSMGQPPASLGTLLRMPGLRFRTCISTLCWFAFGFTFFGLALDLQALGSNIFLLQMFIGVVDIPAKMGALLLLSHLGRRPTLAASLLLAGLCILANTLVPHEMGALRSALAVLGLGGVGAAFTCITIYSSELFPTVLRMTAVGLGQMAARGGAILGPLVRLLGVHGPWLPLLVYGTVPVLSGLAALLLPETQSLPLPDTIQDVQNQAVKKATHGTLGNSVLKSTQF
The following applies: verbal rating, both assays.

SMILES strings stand for the structures.

As for `CC(C)Sc1nc(O)c(C(=O)Nc2ccc(-c3c[nH]nn3)cc2)c(=O)[nH]1` [Formula (IId), N-(4-(1H-1,2,3-triazol-5-yl)phenyl)-4-hydroxy-2-(isopropylthio)-6-oxo-1,6-dihydropyrimidine-5-carboxamide], the “bifunctional inhibition (URAT1 and xanthine oxidase)” value is given as “particularly effective bifunctional inhibitor”.

The values above are taken from patent US20220024900A1, “Compounds and Their Use for Reducing Uric Acid Levels” (Acquist LLC, priority 2016, published 2022).
